# From patent US7547783B2, “Transition metal complexes” (Shell Oil Company, priority 2004, dated 2009)
# Experiment: practical solubility of the transition metal complexes at ambient temperature
# Conditions: at 20° C.
# Procedure: The practical solubility of the transition metal complexes was determined at ambient temperature in the inert atmosphere of the dry box.
# 1 mg of solid complex was contacted with 0.5 ml of benzene-D6 in an NMR-tube (5 mm external diameter) and gently swirled.
substance,measurement,value
"2-[1-(2,4,6-trimethylphenylimino)ethyl]-6-[1-(4-tert-butylphenylimino)ethyl]pyridine iron[II] chloride complex [Example 1, reference compound]",solubility in toluene or benzene-D6,< 1000 µg/mL
